## Binding of CDR-mutated scFvs to a peptide of the spike HR2 region

Reference: Engelhart et al. 2022, doi:10.1038/s41597-022-01779-4. File: FLAb, binding data.

Antigen: PDVDLGDISGINAS, a 14-residue peptide of the SARS-CoV-2 spike HR2 region.

Ab-14 is the parent antibody, in scFv form: VH, then a (GGGGS)3 linker, then VL. The light chain is unchanged in all variants.
VH: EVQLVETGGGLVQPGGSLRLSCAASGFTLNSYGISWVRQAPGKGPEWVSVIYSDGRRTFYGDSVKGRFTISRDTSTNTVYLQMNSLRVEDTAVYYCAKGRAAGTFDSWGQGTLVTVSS
VL: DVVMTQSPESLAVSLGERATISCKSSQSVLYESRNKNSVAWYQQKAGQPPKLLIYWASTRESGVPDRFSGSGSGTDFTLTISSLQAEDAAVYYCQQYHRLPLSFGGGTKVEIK

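The starting antibody came from a phage panning campaign against this peptide. Library AAYL49 holds single substitutions and randomly drawn double and triple substitutions in the CDRs. The assay is AlphaSeq: two haploid yeast populations carry antibody and antigen on their surface. Mating (16 h, 30 °C) was followed by selection of diploids and sequencing of their barcodes. A regression on co-assayed BCL2-family reference pairs converts the normalised counts of each replicate to an apparent Kd. The assay was run in three technical replicates.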

Substitutions are numbered in sequence along the VH above, starting at 1 (not Kabat).
Every variant below is changed at N30 of the VH (sequential numbering).
The Kd shown is the geometric mean over detected replicates; a lower Kd is a better binder.
Where no diploid with the target was found in any replicate, the entry reads "nd": below detection, most likely a poor binder, though not proof of it.
In this assay the parent's reference entry averaged 4.4 nM; its copy inside this library read 13 µM (one replicate of three).

With F27V/N30A/S35T the result was nd (0 of 3 replicates; controls 2 of 9).
With T28A/N30L/D62P the result was nd (0 of 3 replicates; controls 2 of 9).
With N30T/A101L/G103L the result was 120 µM (1 of 3 replicates; controls 1 of 9).
With L29V/N30Y/Y52P the result was nd (0 of 3 replicates; controls 0 of 9).
With N30S/F59M/S63T the result was 3.3 µM (3 of 3 replicates; controls 6 of 9).
With N30P/G33F/I51S the result was nd (0 of 3 replicates; controls 0 of 9).
With N30V/I51Y/K65A the result was nd (0 of 3 replicates; controls 0 of 9).
With G26N/N30L/I34F the result was 54 µM (2 of 3 replicates; controls 0 of 9).
With N30I/A102R/G103K the result was 5.8 µM (3 of 3 replicates; controls 4 of 9).
With N30F/S35M/T58V the result was 24 µM (1 of 3 replicates; controls 2 of 9).
With N30Y/R57C/S107D the result was nd (0 of 3 replicates; controls 0 of 9).
With N30V/Y52F/A101R the result was 13 µM (2 of 3 replicates; controls 6 of 9).
With N30Q/F59A the result was 1.8 nM (3 of 3 replicates; controls 3 of 9).
With F27M/N30Q/R57L the result was nd (0 of 3 replicates; controls 3 of 9).
With N30G/I34N/R57K the result was 5.2 µM (2 of 3 replicates; controls 2 of 9).
With N30S/S35K/T58Q the result was 1.8 µM (1 of 3 replicates; controls 0 of 9).
With G26R/N30M/R57N the result was 1.1 µM (3 of 3 replicates; controls 0 of 9).
With N30H/I34F/K65M the result was 2.0 µM (2 of 3 replicates; controls 1 of 9).
With F27N/N30I/G33I the result was 50 µM (2 of 3 replicates; controls 4 of 9).
With G26V/N30H/T58G the result was nd (0 of 3 replicates; controls 3 of 9).
With N30L/R56I/D62T the result was nd (0 of 3 replicates; controls 0 of 9).
With N30T/T58Q the result was 47 nM (3 of 3 replicates; controls 0 of 9).
With N30I/I51F/T58W the result was 1.2 µM (1 of 3 replicates; controls 1 of 9).
With F27K/N30A/G55K the result was nd (0 of 3 replicates; controls 0 of 9).
With N30T/D62G/K65A the result was 390 nM (3 of 3 replicates; controls 1 of 9).
With N30K/Y60V/V64A the result was nd (0 of 3 replicates; controls 0 of 9).
With N30G/D62Q/A102N the result was 3.8 µM (1 of 3 replicates; controls 2 of 9).
With T28L/N30T/S63H the result was 26 nM (3 of 3 replicates; controls 1 of 9).
With F27K/N30Q/K65E the result was 99 nM (3 of 3 replicates; controls 1 of 9).
With F27V/N30F/G33D the result was nd (0 of 3 replicates; controls 1 of 9).
With N30E/S31W/D54H the result was nd (0 of 3 replicates; controls 0 of 9).
With N30L/V50A/F59N the result was nd (0 of 3 replicates; controls 2 of 9).
With N30W/F59W/K65E the result was 8.6 µM (2 of 3 replicates; controls 2 of 9).
With N30F/Y32M/I51P the result was nd (0 of 3 replicates; controls 1 of 9).
With N30E/G61P/F105Y the result was 19 nM (3 of 3 replicates; controls 0 of 9).
With N30P/Y52D/F105Q the result was 2.1 µM (1 of 3 replicates; controls 2 of 9).
With N30Y/I51G/K65G the result was 19 µM (1 of 3 replicates; controls 2 of 9).
With N30D/R57K/F59D the result was 34 µM (2 of 3 replicates; controls 1 of 9).
With N30V/S53T/F105A the result was 7.4 µM (1 of 3 replicates; controls 2 of 9).
With N30A/A101I/S107D the result was 550 nM (1 of 3 replicates; controls 2 of 9).
With N30F/G55S/R100P the result was 150 µM (1 of 3 replicates; controls 2 of 9).
With N30A/Y32W/V64E the result was nd (0 of 3 replicates; controls 0 of 9).
With N30M/R56W/D106T the result was 2.0 µM (1 of 3 replicates; controls 2 of 9).
With N30Y/D62C/D106H the result was 6.2 µM (1 of 3 replicates; controls 3 of 9).
With N30D/F59G/V64E the result was 74 µM (1 of 3 replicates; controls 3 of 9).
With T28K/N30S/I51S the result was nd (0 of 3 replicates; controls 0 of 9).
With L29I/N30I/G103W the result was 78 µM (2 of 3 replicates; controls 2 of 9).
With N30W/I34L/D62F the result was 21 µM (1 of 3 replicates; controls 3 of 9).
With N30A/G55P/T104A the result was 350 nM (1 of 3 replicates; controls 0 of 9).

5 of these entries, quoted again:

changes,Kd (apparent),detected,control signals
F27K/N30Q/K65E,99 nM,3/3,1/9
N30V/Y52F/A101R,13 µM,2/3,6/9
G26N/N30L/I34F,54 µM,2/3,0/9
F27M/N30Q/R57L,nd,0/3,3/9
N30A/G55P/T104A,350 nM,1/3,0/9

Three control strains display no target. For library AAYL49, 15% of the pairings with them gave a signal, with a median of 11 µM and one signal in twenty below 680 nM, so weak values seen in few replicates may be background. The control count says in how many pairings with the empty strains this scFv gave a signal.